Source: patent publication US5760092A, “Allocolchinones and uses thereof” (Brandeis University, priority 1996, dated 1998)

Columns and labels:
[1] = test system: COLO 205 colon cancer cells; assay: cells; settings: Homo sapiens, COLO 205, read-out: Percent Growth
[2] = test system: HL-60 (TB) leukemia cells
[3] = test system: HL-60 (TB) leukemia cells; assay: cells; settings: Homo sapiens
[4] = test system: COLO 205 colon cancer cells
K-562 leukemia cells = assay: cells; settings: Homo sapiens, K562, read-out: LC50
SK-MEL-5 melanoma cells = assay: cells; settings: Homo sapiens, SK-MEL-5, read-out: LC50
MALME-3M melanoma cells = assay: cells; settings: Homo sapiens, read-out: LC50
[5] = test system: IGR-OV1 ovarian cancer cells; assay: cells; settings: Homo sapiens, IGROV-1, read-out: LC50
KM12 colon cancer cells = assay: cells; settings: Homo sapiens, KM12, read-out: LC50
[6] = test system: HCC-2998 colon cancer cells; assay: cells; settings: Homo sapiens, HCC 2998, read-out: LC50
ACHN renal cancer cells = assay: cells; settings: Homo sapiens, read-out: LC50
SR leukemia cells = assay: cells; settings: Homo sapiens, read-out: LC50
[7] = test system: DU-145 prostate cancer cells; assay: cells; settings: Homo sapiens, DU-145, read-out: LC50
[8] = test system: OVCAR-4 ovarian cancer cells; assay: cells; settings: Homo sapiens, OVCAR-4, read-out: LC50
[9] = test system: EKVX non-small cell lung cancer cells; assay: cells; settings: Homo sapiens, read-out: LC50
[10] = test system: SW-620 colon cancer cells; assay: cells; settings: Homo sapiens, SW-620, read-out: LC50
786-0 renal cancer cells = assay: cells; settings: Homo sapiens, 786-0, read-out: LC50
[11] = test system: PC-3 prostate cancer cells; assay: cells; settings: Homo sapiens, read-out: LC50
[12] = test system: HCT-116 colon cancer cells; assay: cells; settings: Homo sapiens, HCT-116, read-out: LC50
HT29 colon cancer cells = assay: cells; settings: Homo sapiens, HT-29, read-out: LC50
UACC-62 melanoma cells = assay: cells; settings: Homo sapiens, UACC-62, read-out: LC50
M14 melanoma cells = assay: cells; settings: Homo sapiens, M14, read-out: LC50
SN12C renal cancer cells = assay: cells; settings: Homo sapiens, read-out: LC50
[13] = test system: OVCAR-5 ovarian cancer cells; assay: cells; settings: Homo sapiens, OVCAR-5, read-out: LC50
[14] = test system: NCI-H226 non-small cell lung cancer cells; assay: cells; settings: Homo sapiens, NCI-H226, read-out: LC50
[15] = test system: T-47D breast cancer cells; assay: cells; settings: Homo sapiens, T47D, read-out: LC50
[16] = test system: A549/ATCC non-small cell lung cancer cells; assay: cells; settings: Homo sapiens, A549, read-out: LC50
LOX IMVI melanoma cells = assay: cells; settings: Homo sapiens, read-out: LC50
[17] = test system: HCT-15 colon cancer cells; assay: cells; settings: Homo sapiens, HCT-15, read-out: LC50
[18] = test system: NCI-H460 non-small cell lung cancer cells; assay: cells; settings: Homo sapiens, NCI-H460, read-out: LC50
CCRF-CEM leukemia cells = assay: cells; settings: Homo sapiens, read-out: LC50
SK-MEL-2 melanoma cells = assay: cells; settings: Homo sapiens, SK-MEL-2, read-out: LC50
TK-10 renal cancer cells = assay: cells; settings: Homo sapiens, TK-10, read-out: LC50
[19] = test system: NCI-H322M non-small cell lung cancer cells; assay: cells; settings: Homo sapiens
RPMI-8226 leukemia cells = assay: cells; settings: Homo sapiens, RPMI-8226, read-out: LC50
[20] = test system: MDA-MB-231/ATCC breast cancer cells; assay: cells; settings: Homo sapiens, MDA-MB-231, read-out: LC50
SK-MEL-28 melanoma cells = assay: cells; settings: Homo sapiens, SK-MEL-28, read-out: LC50
[21] = test system: MDA-N breast cancer cells; assay: cells; settings: Homo sapiens, read-out: LC50
[22] = test system: MDA-MB-435 breast cancer cells; assay: cells; settings: Homo sapiens, MDA-MB-435, read-out: LC50
MCF7 breast cancer cells = assay: cells; settings: Homo sapiens, MCF7, read-out: LC50
UO-31 renal cancer cells = assay: cells; settings: Homo sapiens, UO-31, read-out: LC50
[23] = test system: BT-549 breast cancer cells; assay: cells; settings: Homo sapiens, BT-549, read-out: LC50
UACC-257 melanoma cells = assay: cells; settings: Homo sapiens, UACC-257, read-out: LC50
[24] = HL-60, read-out: Percent Growth

COc1cc2c(c(OC)c1OC)-c1ccc(C(C)=O)cc1C(NC(C)=O)CC2 (stereo not drawn)
activity at 0.0001 µM [1]: 97%
activity at 0.001 µM [1]: 50%
Percent Growth ([2]; 1 µM): 4%
activity at 0.0001 µM [3, 24]: 87%
activity at 0.001 µM [3, 24]: -40%
activity at 10 µM [3, 24]: 9%
activity at 100 µM [3, 24]: 10%
Percent Growth ([4]; 0.1 µM): -25%
Percent Growth ([4]; 1 µM): -64%

CCCC(=O)NC1CCc2cc(OC)c(OC)c(OC)c2-c2ccc(C(C)=O)cc21 (stereo not drawn)
activity at 100 µM [1]: -98%
Percent Growth ([2]; 0.01 µM): -17%
Percent Growth ([2]; 1 µM): -23% and -30%
Percent Growth ([2]; 10 µM): -22% and -24%
Percent Growth ([2]; 100 µM): -22% and -14%
Percent Growth ([4]; 0.1 µM): -38%
Percent Growth ([4]; 1 µM): -88% and -83%
Percent Growth ([4]; 10 µM): -91% and -85%

COc1cc2c(c(OC)c1OC)-c1ccc(OC)c(=O)cc1[C@@H](NC(C)=O)CC2 [Colchicine, reference compound]
CC50 (K-562 leukemia cells): > 100 µM
CC50 (SK-MEL-5 melanoma cells): > 100 µM
CC50 (MALME-3M melanoma cells): > 100 µM
CC50 ([3]; HL-60, read-out: LC50): > 100 µM
CC50 [5]: > 100 µM
CC50 (KM12 colon cancer cells): > 100 µM
CC50 [6]: > 100 µM
CC50 (ACHN renal cancer cells): > 100 µM
CC50 (SR leukemia cells): > 100 µM
CC50 [7]: > 100 µM
CC50 [8]: > 100 µM
CC50 [9]: > 100 µM
CC50 [10]: > 100 µM
CC50 (786-0 renal cancer cells): > 100 µM
CC50 [11]: > 100 µM
CC50 [12]: > 100 µM
CC50 (HT29 colon cancer cells): > 100 µM
CC50 (UACC-62 melanoma cells): 59.6 µM
CC50 (M14 melanoma cells): > 100 µM
CC50 (SN12C renal cancer cells): > 100 µM
CC50 [13]: > 100 µM
CC50 [14]: > 100 µM
CC50 [15]: > 100 µM
CC50 [16]: > 100 µM
CC50 (LOX IMVI melanoma cells): 42.2 µM
CC50 [17]: > 100 µM
CC50 [18]: > 100 µM
CC50 (CCRF-CEM leukemia cells): > 100 µM
CC50 (SK-MEL-2 melanoma cells): > 100 µM
CC50 (TK-10 renal cancer cells): > 100 µM
GI50 [19]: 0.0611 µM
CC50 ([19]; read-out: LC50): > 100 µM
activity at 0.01 µM ([19]; read-out: Percent Growth): 102%
activity at 0.1 µM ([19]; read-out: Percent Growth): 36%
activity at 1 µM ([19]; read-out: Percent Growth): 31%
activity at 10 µM ([19]; read-out: Percent Growth): 25%
activity at 100 µM ([19]; read-out: Percent Growth): 22%
CC50 (RPMI-8226 leukemia cells): > 100 µM
CC50 [20]: > 100 µM
CC50 (SK-MEL-28 melanoma cells): > 100 µM
CC50 [21]: > 100 µM
CC50 [22]: > 100 µM
CC50 (MCF7 breast cancer cells): > 100 µM
CC50 (UO-31 renal cancer cells): > 100 µM
CC50 [23]: > 100 µM
CC50 (UACC-257 melanoma cells): > 100 µM

Several values for one entry are separate records, joined by “and”; a condition that tells them apart may be missing. Equal entries are not always repeated. Where two headings read alike, the source gives them in different places.
